Assay results as given in PubChem BioAssay AID651687 (Broad Institute, 2012).
The list shows a part of the results, in another mix than the full data. Activity calls are given as the source filed them.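 Rule for the calls: active = every replicate shows inhibition of at least 40%; inconclusive = mean inhibition at least 40% but some replicate below; inactive = the rest.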

Test: compounds lowering acetylated PGC1a in cells – cell-based, U2OS, AlphaScreen, inhibitor mode, primary screen (AID 651687);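 note: 0% = neutral control wells and 100% = positive control wells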
Settings: U2OS PGC1a acetylation, AlphaScreen anti-acetyl-lysine; at 15.6 µM; hits give high values; with virally co-expressed GCN5 acetyltransferase
With `O=[N+]([O-])c1cccc2n[nH]nc12` the inhibition was inactive: -0.791%.
In the case of `O=[N+]([O-])c1cc([N+](=O)[O-])c(CCNc2ccccc2)c([N+](=O)[O-])c1`, the inhibition is reported as inactive: 15.8%.
For `Cc1ccc(NP(=O)(Oc2ccccc2)Oc2ccccc2)nc1`, the inhibition was inactive: 3.8%.
In the case of `C[N+]1=C2C=CC=CC=C2SC12C([N+](=O)[O-])=CC([N+](=O)[O-])=C[C-]2[N+](=O)[O-]` (stereo unspecified), the inhibition is reported as inactive: 10.1%.
For `Nc1ccc([As](=O)(O)c2ccc(N)cc2)cc1`, the inhibition was inactive: -6.73%.
In the case of `CC(C)c1nc(Nc2ccccc2)n(P(=O)(N(C)C)N(C)C)n1`, the inhibition is reported as inactive: -0.0755%.
For `c1cc(-c2nn[nH]n2)ccc1-c1nn[nH]n1`, the inhibition was inactive: 6.34%.
In the case of `CC1CCN(C(=O)Oc2c(Cl)cc(Cl)c3cccnc23)CC1`, the inhibition is reported as inactive: -3.37%.
With `O=P1(N(CCCl)CCCl)OCCCS1` (stereo unspecified) the inhibition was inactive: 1.15%.
With `CC(C)(C)C(=O)NC(Sc1ccncn1)C(Cl)(Cl)Cl` (stereo unspecified) the inhibition was inactive: -7.15%.
With `O=[N+]([O-])c1cccc(NC2=NCC(CBr)S2)c1` (stereo unspecified) the inhibition was inactive: 8.08%.
For `COC(=O)C1(C)COP(=O)(Nc2ccccc2)OC1` (stereo unspecified), the inhibition was inactive: 4.23%.
In the case of `CCCC1OP(N)(=O)OCC1CC` (stereo unspecified), the inhibition is reported as inactive: 4.49%.
With `O=C(O)c1ccccc1[As](=O)(O)O` the inhibition was inactive: 0.144%.
With `CN(C)P(=O)(N(C)C)n1c(Nc2ccccc2)nnc1-c1ccccc1` the inhibition was inactive: -10.2%.
With `O=P(Nc1nc2ccc(Cl)cc2s1)(c1ccccc1)c1ccccc1` the inhibition was inactive: 10.1%.
With `CN(C(=O)Cc1ccc(Cl)c(Cl)c1)[C@H]1CCCC[C@@H]1N1CCCC1` the inhibition was inactive: 5.71%.
With `Cc1ccc(NP(=O)(Oc2ccccc2F)Oc2ccccc2F)nc1` the inhibition was inactive: -12%.
With `CCOP(=O)(Nc1ccccc1)OCC` the inhibition was inactive: -9.94%.
For `Nc1cccc2ccc([As](=O)(O)O)cc12`, the inhibition was inactive: 0.89%.
For `CN(C(=O)Cc1ccc(Cl)c(Cl)c1)[C@H]1CCCC[C@H]1N1CCCC1`, the inhibition was inactive: 2.97%.
For `Cc1ccc(OP(=O)(Nc2nccs2)Oc2ccc(C)cc2)cc1`, the inhibition was inactive: 0.642%.
In the case of `Clc1ccc(Cl)c(NC2=NCC(CBr)S2)c1` (stereo unspecified), the inhibition is reported as inactive: -11.6%.
For `CN1CCCC(OC(=O)C(c2ccccc2)c2ccccc2)C1` (stereo unspecified), the inhibition was inactive: 8.56%.
With `CC(C)CC(=O)NC(Sc1ccc(Cl)cc1)C(Cl)(Cl)Cl` (stereo unspecified) the inhibition was inactive: -9.63%.
In the case of `Oc1ccccc1CNc1ccccn1`, the inhibition is reported as inactive: 1.28%.
